Values of other authors as cited in patent US10954430B2, “Low-toxicity, low-flammability, environmentally-safe, friction reducer fluid for hydraulic fracturing” (priority 2012, dated 2021).

How the values were obtained:
Details in all cases: in vivo
[1] = tested on: rat
[2] = tested on: Pimephales promelas (fathead minnow)
[3] = tested on: daphnia magna (water flea)

## Tripropylene glycol ether
[1]
  LD50: 3200 mg/kg
[2]
  LC50: 11.619 mg/mL
[3]
  LC50: > 10,000 mg/L
